Three compounds from PubChem BioAssay AID488928 (Johns Hopkins Ion Channel Center, 2010) can be followed below.

Molecules are shown by their SMILES. The list shows a part of the results, in another mix than the full data. Active and inactive are the calls of the source.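 The calls were made as follows: active = drop in membrane potential signal beyond 5 SD of the control wells in both duplicate plates; inactive = the rest.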

A word on the inhibition: it is the drop in the measured response relative to a control, in per cent.

In the assay the test system is TRPC4 (transient receptor potential cation channel C4), mouse. Briefly: TRPC4 inhibition by TRPC6 hit compounds, confirmation, selectivity assay for TRPC6 modulator project, cell-based, second screen, HEK293 TRPC4/mu-opioid, membrane potential dye (AID 488928).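 Also: TRPC4 counter screen for TRPC6 hits run under conditions tuned for TRPC6 not TRPC4.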 The settings on record: membrane potential dye fluorescence, at 10 µM, stimulated with maximal-effect DAMGO; hits give high values.
For the compound `CCN(CC)CC(O)COC(=O)C(O)(c1ccccc1)C1CCCCC1` (stereo not drawn), the inhibition is active: 29.5%. Next, `CCN(CC)CCCOC(=O)C(O)(c1ccccc1)c1ccccc1`: “inactive”; `O=C(OC1CN2CCC1CC2)C12CC3CC(CC(C3)C1)C2` (stereo not drawn): active: 42.5%.
